Experimental data published in patent US7829572B2 (Pfizer Inc, priority 2006, dated 2010).

Protein sequences, listed by entry. Tags and fused reporters are not part of them. Residues count along the entry.
UniProt P41180, 20-1078 limits assumed: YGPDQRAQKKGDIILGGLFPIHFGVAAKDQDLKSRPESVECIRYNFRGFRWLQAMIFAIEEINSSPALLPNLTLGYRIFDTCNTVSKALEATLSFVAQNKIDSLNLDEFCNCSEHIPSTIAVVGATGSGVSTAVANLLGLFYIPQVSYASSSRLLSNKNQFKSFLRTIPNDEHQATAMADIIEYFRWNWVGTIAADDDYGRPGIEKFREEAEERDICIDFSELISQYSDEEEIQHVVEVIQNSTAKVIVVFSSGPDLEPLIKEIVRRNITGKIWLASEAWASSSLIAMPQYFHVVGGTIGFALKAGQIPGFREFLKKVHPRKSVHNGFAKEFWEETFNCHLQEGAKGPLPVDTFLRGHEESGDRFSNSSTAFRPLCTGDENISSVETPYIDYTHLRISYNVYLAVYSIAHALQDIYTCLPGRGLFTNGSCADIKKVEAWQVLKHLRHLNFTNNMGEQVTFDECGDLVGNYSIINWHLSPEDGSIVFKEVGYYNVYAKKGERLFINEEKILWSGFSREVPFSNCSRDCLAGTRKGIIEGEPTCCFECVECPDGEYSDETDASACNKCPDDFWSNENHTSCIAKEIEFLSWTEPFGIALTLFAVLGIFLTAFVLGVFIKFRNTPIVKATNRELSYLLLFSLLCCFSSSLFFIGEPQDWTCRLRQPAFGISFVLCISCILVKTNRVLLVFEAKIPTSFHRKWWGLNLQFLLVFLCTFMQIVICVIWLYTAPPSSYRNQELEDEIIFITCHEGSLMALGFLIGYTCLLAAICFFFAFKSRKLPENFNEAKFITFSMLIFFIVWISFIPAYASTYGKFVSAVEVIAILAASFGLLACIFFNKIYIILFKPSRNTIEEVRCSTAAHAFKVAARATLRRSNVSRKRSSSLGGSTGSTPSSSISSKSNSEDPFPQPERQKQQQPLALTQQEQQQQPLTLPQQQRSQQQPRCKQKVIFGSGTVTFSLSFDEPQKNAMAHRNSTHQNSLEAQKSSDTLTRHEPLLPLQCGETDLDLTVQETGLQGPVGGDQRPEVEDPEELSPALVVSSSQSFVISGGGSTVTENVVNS

Target: calcium receptor (CasR) (Homo sapiens, UniProt P41180)
Assay: FLIPR Assay for Evaluating the Potency and Selectivity of Test Compounds
Conditions: read-out: FLIPR IC50; HEK 293 cells expressing CasR; 30 minutes pre-incubation; stimulation by 1.7 mM Ca2+; read 42 seconds after stimulation
Source text: FLIPR Assay for Evaluating the Potency and Selectivity of Test Compounds
Human kidney cell (HEK 293) expressing the calcium receptor (CasR) are used to detect antagonists of the receptor using Fluorometric imaging plate reader (FLIPR, Molecular Devices, Sunnyvale Calif.). Receptor activation by extracellular calcium results in the release of calcium from intracellular stores into the cytosol. A fluorescent indicator (Fluo-4) is internalized by the cells from growth media and interacts with calcium released into the cytosol to provide a means of quantifying intracellular Ca^2+ levels and receptor agonism/antagonism. Fluorescence intensity is detected by the FLIPR CCD camera and traced as a function of time. Potential antagonists are identified by their ability to decrease this fluorescent response.
To determine the IC50 values cells are loaded with Fluo4 (2.05 mM Fluo-4, 0.04% pluronic acid, 2.6 mM probenecid in 90% DMEM high glucose, 10% dialyzed Fetal Bovine Serum, 1× Pen Strep, 1×L-Glutamine, 3 ug/ml Puromycin, 27.5 nM Methotrexate) for 1 hour at 37° C. Prior to the addition of test compound cells are washed with a 10 mM HEPES buffer solution. The test compound, for example the compound of Example 1, is added at various doses (from 1 µM to 3 nM) and pre-incubated with cells for 30 minutes followed by stimulation of the CasR by the addition of 1.7 mM Ca^2+. […]

pIC50: 6.49
SMILES: CC(Cc1ccccc1F)n1c(-c2cscn2)nc2ccnc(C(F)(F)F)c2c1=O (single isomer, unassigned)

pIC50: −log10 of the molar value.
